Assay results: publication PMC6372279 (eLife, 2019)
Like-named read-outs stand apart in the source and are kept apart here.

Chains of the proteins cited; added tags and fusions are not shown. Residues count along the entry.
UniProt P06213, 28-758 limits assumed: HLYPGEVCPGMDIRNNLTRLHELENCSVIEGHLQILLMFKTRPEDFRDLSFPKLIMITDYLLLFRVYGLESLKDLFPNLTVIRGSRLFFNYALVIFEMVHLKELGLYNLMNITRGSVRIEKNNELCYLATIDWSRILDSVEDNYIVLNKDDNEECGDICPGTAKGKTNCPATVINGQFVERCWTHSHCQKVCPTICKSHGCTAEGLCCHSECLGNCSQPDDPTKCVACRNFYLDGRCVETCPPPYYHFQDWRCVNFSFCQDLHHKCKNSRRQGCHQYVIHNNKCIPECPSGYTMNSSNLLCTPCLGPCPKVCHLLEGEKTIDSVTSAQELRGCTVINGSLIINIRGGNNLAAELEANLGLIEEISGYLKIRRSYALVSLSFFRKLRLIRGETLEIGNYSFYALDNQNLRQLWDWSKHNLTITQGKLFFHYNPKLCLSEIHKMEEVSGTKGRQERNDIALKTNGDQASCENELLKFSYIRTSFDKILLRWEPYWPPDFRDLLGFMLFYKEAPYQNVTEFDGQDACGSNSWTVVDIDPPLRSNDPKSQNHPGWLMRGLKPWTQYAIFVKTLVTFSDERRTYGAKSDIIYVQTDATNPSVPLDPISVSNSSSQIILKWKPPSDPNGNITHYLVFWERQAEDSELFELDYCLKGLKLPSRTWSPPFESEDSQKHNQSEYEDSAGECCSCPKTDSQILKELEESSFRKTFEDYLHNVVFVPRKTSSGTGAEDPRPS
UniProt P06213, 763-1382 partner limits assumed: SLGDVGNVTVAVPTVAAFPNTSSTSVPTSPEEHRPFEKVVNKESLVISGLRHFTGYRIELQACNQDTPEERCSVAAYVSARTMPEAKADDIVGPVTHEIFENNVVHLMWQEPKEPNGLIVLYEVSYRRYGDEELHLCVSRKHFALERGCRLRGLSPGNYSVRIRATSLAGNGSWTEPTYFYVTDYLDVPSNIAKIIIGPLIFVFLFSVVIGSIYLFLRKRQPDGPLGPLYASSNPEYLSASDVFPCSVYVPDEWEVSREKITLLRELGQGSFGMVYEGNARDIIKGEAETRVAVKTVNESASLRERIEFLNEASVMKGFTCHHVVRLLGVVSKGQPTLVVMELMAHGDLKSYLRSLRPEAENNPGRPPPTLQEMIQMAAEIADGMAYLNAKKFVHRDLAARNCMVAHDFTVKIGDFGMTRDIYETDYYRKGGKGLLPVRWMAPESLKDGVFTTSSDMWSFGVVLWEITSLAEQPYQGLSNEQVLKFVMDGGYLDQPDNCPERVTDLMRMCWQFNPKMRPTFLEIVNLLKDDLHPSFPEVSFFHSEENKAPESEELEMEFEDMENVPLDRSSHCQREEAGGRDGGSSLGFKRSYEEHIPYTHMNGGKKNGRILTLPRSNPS

Key:
human IR-B [1] = molecular target: T1, human IR-B (Homo sapiens, UniProt P06213); experiment: cell-based
human IR-B [2] = molecular target: T1, human IR-B; experiment: cell-based; remark: listed apart in the source

CC[C@H](C)[C@@H]1NC(=O)[C@H](CC(C(=O)O)C(=O)O)NC(=O)[C@H](CO)NC(=O)CNC(=O)[C@@H](NC(=O)[C@H](CCCNC(=N)N)NC(=O)[C@H](Cc2c[nH]cn2)NC(=O)[C@H](CCCCN)NC(=O)[C@@H]2C[C@@H](O)CN2C(=O)[C@@H](NC(=O)[C@H](CC(=O)O)NC(=O)[C@H](Cc2ccccc2)NC(=O)[C@@H](N)[C@@H](C)O)[C@@H](C)O)CSSC[C@@H]2NC(=O)[C@@H](NC(=O)[C@H](Cc3c[nH]cn3)NC(=O)[C@H](CC(C(=O)O)C(=O)O)NC(=O)[C@@H](NC(=O)[C@@H](NC(=O)CN)C(C)C)C(C)C)CSSC[C@H](NC(=O)[C@@H]3CCCN3C(=O)[C@H](CCCNC(=N)N)NC(=O)[C@H](Cc3c[nH]cn3)NC2=O)C(=O)N[C@@H](CO)C(=O)N[C@@H](CC(N)=O)C(=O)N[C@@H](C)C(=O)N[C@@H](CCC(=O)O)C(=O)N[C@@H](Cc2ccccc2)C(=O)N[C@@H](CCCCN)C(=O)N[C@@H](CCCCN)C(=O)N[C@@H](Cc2ccc(O)cc2)C(=O)N[C@H](C(N)=O)CSSC[C@@H](C(=O)N[C@@H](Cc2ccc(O)cc2)C(=O)N[C@@H](CCCNC(=N)N)C(=O)O)NC(=O)[C@H](CC(C)C)NC(=O)[C@H](CC(=O)O)NC(=O)[C@H](CCSC)NC(=O)[C@H](Cc2ccc(O)cc2)NC(=O)[C@H](CO)NC(=O)[C@H](CC(N)=O)NC(=O)[C@H]([C@@H](C)O)NC1=O [Con-Ins G1]
EC50 (human IR-B [1]): 136 nM
EC50 (human IR-B [2]): 16.3 nM
